Key:
OPN promoter = OPN promoter luciferase reporter assay in melanoma cell lines
RAW264.7 cells = test: Osteoclast resorption activity, OAAS plates

Compound: CC1=C2C[C@H]3[C@@H](CC=C4C[C@@H](O)CC[C@@]43C)[C@@H]2CC[C@]12O[C@@H]1C[C@H](C)CN[C@H]1[C@H]2C [cyclopamine]
- OPN promoter activity (OPN promoter; MCC012A, 10 μM): noticeable, but not significant (p=0.06) decrease
- OPN promoter activity (OPN promoter; MCC012A, 20 μM): significant decrease (p=0.0006)
- OPN promoter activity (OPN promoter; MCC012F, 10 μM and 20 μM): significant (p=0.042 and 0.002, respectively) decrease
- OPN promoter activity (OPN promoter; MDA-MB-435, MCC012A, MCC012F): decreases the activity of the OPN promoter
- differentiation and resorptive activity potentiated by breast cancer cell-conditioned medium (RAW264.7 cells; cyclopamine 20 μM): remarkably compromised
- ability of MDA-MB-435 cells to activate resorptive function (RAW264.7 cells; tumor cells treated with cyclopamine): significantly reduced their ability to activate the resorptive function

Reference: patent publication US9464291B2, “Methods and compositions for the treatment of cancer” (University of South Alabama, priority 2012, dated 2016)
